In the test the target is Histamine H3 receptor (Rattus norvegicus, UniProt Q9QYN8). Briefly: Displacement of [3H]NAMH from rat histamine H3 receptor expressed in CHO cells. Format: cell-based. For orientation: In a radioligand displacement assay an active substance lowers the binding of a labelled ligand.

Amino acid sequences for entries named in this document (tags omitted). A change or cut given only in a name is not applied to a line headed by its entry.
UniProt Q9QYN8: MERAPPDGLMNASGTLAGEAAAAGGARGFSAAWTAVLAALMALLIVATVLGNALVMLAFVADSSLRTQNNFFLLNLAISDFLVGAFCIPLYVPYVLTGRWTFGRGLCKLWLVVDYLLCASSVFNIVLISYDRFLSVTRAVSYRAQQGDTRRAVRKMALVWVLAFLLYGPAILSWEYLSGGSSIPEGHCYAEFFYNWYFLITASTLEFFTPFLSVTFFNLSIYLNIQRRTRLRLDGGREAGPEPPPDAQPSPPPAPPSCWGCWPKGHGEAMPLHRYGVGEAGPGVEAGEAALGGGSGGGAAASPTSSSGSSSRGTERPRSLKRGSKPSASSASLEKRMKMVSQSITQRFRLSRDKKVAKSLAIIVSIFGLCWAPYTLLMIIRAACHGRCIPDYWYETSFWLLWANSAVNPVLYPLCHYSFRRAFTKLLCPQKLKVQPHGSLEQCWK

The source of these data is ChEMBL document CHEMBL1811886 (J Med Chem, 2011).

As usually defined, the Ki is the equilibrium dissociation constant of an inhibitor or competing ligand from its target. Read a high Ki as a looser hold on the target.

Molecule `C[C@@H]1CCCN1CCc1cc2cc(-c3ccc(C#N)cc3)ccc2o1` displayed a Ki of 31 nM.
